Results on one substance are retold here after PMC6713189, “Dual and selective inhibitors of pteridine reductase 1 (PTR1) and dihydrofolate reductase-thymidylate synthase (DHFR-TS) from Leishmania chagasi” (Journal of Enzyme Inhibition and Medicinal Chemistry, 2019).

The series has as its system biopterin. As to the kind of experiment: purified protein, by the assay type. The following applies: other: pH 4.7, 30 °C, other substrate saturating.

Broadly, the Km is the substrate concentration at which the rate is half of its maximum.

Consider LcPTR1 (Leishmania infantum), for which the Km stood at 25 ± 1.2 µM.
